# Ab-95 light chain CDR variants: yeast mating affinities

Data: MIT Lincoln Laboratory AlphaSeq set, Engelhart et al. 2022, doi:10.1038/s41597-022-01779-4, as distributed in FLAb.

Target: peptide PDVDLGDISGINAS, taken from heptad repeat 2 (HR2) of SARS-CoV-2 spike.

Parent scFv Ab-95: VH joined to VL by the linker GGGGSGGGGSGGGGS. Changes lie in the light chain CDRs alone.
VH: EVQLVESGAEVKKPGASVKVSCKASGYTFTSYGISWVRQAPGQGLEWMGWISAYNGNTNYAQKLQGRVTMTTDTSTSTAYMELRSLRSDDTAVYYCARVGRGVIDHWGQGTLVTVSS
VL: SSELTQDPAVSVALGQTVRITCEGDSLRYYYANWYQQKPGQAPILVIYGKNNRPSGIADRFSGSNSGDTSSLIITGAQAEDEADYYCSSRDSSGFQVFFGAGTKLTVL

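The starting antibody came from a phage panning campaign against this peptide. Variants in AAYL52 differ from the parent at up to three CDR positions; double and triple changes were sampled at random. The assay is AlphaSeq: two haploid yeast populations carry antibody and antigen on their surface. Mating (16 h, 30 °C) was followed by selection of diploids and sequencing of their barcodes. Read counts were normalised to the haploid input and turned into Kd by a linear fit to BCL2-family pairs of known affinity, for each replicate. Each pool was mated in three replicate cultures.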

Variants are written as CDR1, CDR2 and CDR3 of the light chain (limits as in the source). Parent: EGDSLRYYYAN, GKNNRPS, SSRDSSGFQVF. Affinities are written as log10 Kd with Kd in nM; a lower number is a better binder. A mean of the replicates is given; it leaves out those without a signal. Where no diploid with the target was found in that replicate, the entry reads "nd": below detection, most likely a poor binder, though not proof of it. Parent in this assay: reference entry 2.31, copy in this library 2.25. Empty control strains, which show no peptide, gave a signal in 28% of pairings with library AAYL52; the median was 3.91 and 95% of these signals were weaker than 2.90. No background was subtracted. The control count says in how many pairings with the empty strains this scFv gave a signal, with their mean in brackets.

CDR-L1	CDR-L2	CDR-L3	replicates, log10 nM	mean, log10 nM	control signals
EGDSARYYYAN	SKNNRPS	SSRDSSGFGVF	nd nd nd	nd	2/9 (4.18)
EGDSLRYYYAN	GKNNWCN	SSRDSSGFQVF	4.51 nd nd	4.51	2/9 (3.19)
EGASLRYYYAN	GKNRRPS	SSRDSSGFQVC	4.28 3.24 3.17	3.57	3/9 (4.45)
EGDSLRYYYAN	GKNNRPS	SSRDASFFKVF	2.39 2.95 3.81	3.05	0/9
EGDSLRYYYAN	GKNYRPC	SSRDSSGFQVF	nd nd nd	nd	0/9
EGDSLRYYYAN	GKPNRSS	SSRDSSGFQVH	5.24 nd 4.35	4.80	4/9 (3.90)
EGDSLPYYYAN	GKNNRYS	SSRDSSGQQVF	3.24 3.00 nd	3.12	2/9 (4.41)
EGSSLRYYYAN	GKNNRPS	SKRFSSGFQVF	2.43 2.19 2.13	2.25	2/9 (3.94)
EGDSLRYYYAN	HWNNRLS	SSRDSSGFQVF	nd 4.13 3.83	3.98	3/9 (3.83)
MGDSLRYYYAN	GMNNRPF	SSRDSSGFQVF	3.04 3.00 2.90	2.98	4/9 (3.79)
EKDSLRYYYAN	GKNNRPS	SSRDSDGFQMF	4.02 nd 4.25	4.14	2/9 (3.76)
EGDSLRVYYAN	GKNNRPL	SNRDSSGFQVF	4.16 4.60 nd	4.38	2/9 (4.44)
EDDSLRYIYAN	GKNNRPS	SSRDSTGFQVF	nd nd nd	nd	2/9 (4.23)
EGDSLRYYYAN	GKNNRGS	SSRDSSGIQVF	3.13 2.77 3.42	3.11	2/9 (3.68)
EGDSLRYYIAN	GKNNRPS	SSRDSPGFQEF	3.43 4.47 4.72	4.21	6/9 (3.83)
LGDSLRYYYCN	GKNNRPS	FSRDSSGFQVF	3.49 4.30 4.16	3.98	4/9 (4.65)
EGDSARYYYAN	GKGNRPS	SSLDSSGFQVF	3.80 nd 4.08	3.94	5/9 (3.97)
EGDWLRYMYLN	GKNNRPS	SSRDSSGFQVF	nd nd nd	nd	2/9 (3.78)
EGDSLRYYYAN	GKINRPS	SSRDSSGFSAF	4.85 3.84 nd	4.34	6/9 (3.84)
KHDSLRYYYAN	GKNNRPS	SMRDSSGFQVF	2.22 1.94 1.93	2.03	5/9 (4.23)
EGDSLRYYYAN	GKNLRPS	SSRDSSGHCVF	nd nd nd	nd	3/9 (4.75)
EGDRMRYYYAN	TKNNRPS	SSRDSSGFQVF	3.36 4.51 3.68	3.85	2/9 (3.49)
EGDSLRYYYQN	GKNNRPS	SSRDLEGFQVF	5.07 nd 3.58	4.33	3/9 (3.56)
EGDSLRYRYAN	GKNERPS	SSRDSSGFQVF	0.96 0.77 0.14	0.62	2/9 (3.06)
EGDSLRYYYAN	GKNTRPS	SSGDSGGFQVF	3.35 3.18 3.40	3.31	4/9 (3.59)
EGDSLRYYYAN	GKDNPPS	SSRDSSGFQVF	3.93 3.81 nd	3.87	0/9
EGDSLRYYYAN	GHNNRPS	SSRESSGFDVF	nd 5.17 2.92	4.04	1/9 (4.14)
EGDSLRWYYAN	GKNNRPS	SSRDSSGFTVF	3.29 nd nd	3.29	0/9
EGDSLPYYYAN	GKNNRSS	SSRTSSGFQVF	3.67 2.98 3.51	3.39	2/9 (3.71)
EGDSLRYYYAN	GKVNCPS	SSRDSAGFQVF	nd nd nd	nd	0/9
ENDSLRYYWAN	GKNNRPS	SSRDSSGFNVF	2.93 3.49 nd	3.21	2/9 (3.51)
EGDSLRQYYAN	GKNNRPS	CSRDSSGFQVF	3.45 2.71 3.55	3.23	1/9 (3.47)
EGDSLEYYYAN	GKNNRNS	SSRDSSGFYVF	2.54 2.39 2.88	2.60	2/9 (4.75)
ELRSMRYYYAN	GKNNRPS	SSRDSSGFQVF	3.15 2.68 2.44	2.76	0/9
EGDSPRYYYAL	GKNNRPS	SSRDSSGFQVF	2.51 3.54 3.58	3.21	5/9 (3.60)
EGDSLRYYYAK	GKNNRPS	SMRDSSGFQVF	nd 4.06 nd	4.06	4/9 (3.67)
EADSLRYYYAN	GGLNRPS	SSRDSSGFQVF	2.95 3.41 3.37	3.24	4/9 (3.96)
EGDSLRYYYAN	GKNNRPR	SSRDSQPFQVF	nd nd nd	nd	0/9
EGQVLRYYYAN	GKNNRPS	SSRDSWGFQVF	nd 4.66 nd	4.66	1/9 (3.18)
ELWSLRYYYAN	GKNNRPV	SSRDSSGFQVF	4.77 nd nd	4.77	2/9 (4.00)
EGDSLHYYYAN	GFNFRPS	SSRDSSGFQVF	3.38 5.10 nd	4.24	4/9 (4.08)
EGDSLRYYYAN	GKNNRPS	SSNSSSPFQVF	nd 5.10 nd	5.10	2/9 (3.59)

The last 2 entries again:

{"CDR-L1": "EGDSLHYYYAN", "CDR-L2": "GFNFRPS", "CDR-L3": "SSRDSSGFQVF", "replicates, log10 nM": "3.38 5.10 nd", "mean, log10 nM": "4.24", "control signals": "4/9 (4.08)"}
{"CDR-L1": "EGDSLRYYYAN", "CDR-L2": "GKNNRPS", "CDR-L3": "SSNSSSPFQVF", "replicates, log10 nM": "nd 5.10 nd", "mean, log10 nM": "5.10", "control signals": "2/9 (3.59)"}